Values of other authors as cited in US20190365694A1, “COMPOSITION OF MATTER AND USE THEREOF FOR PREVENTING AND TREATING MOTION SICKNESS” (GT BIOPHARMA, INC., priority 2016, published 2019).

System: muscarinic receptors
Settings: in vitro, guinea pig bladder and ileum

affinity for muscarinic receptors relative to S-oxybutynin: significantly higher
SMILES: CCN(CC)CC#CCOC(=O)[C@](O)(c1ccccc1)C1CCCCC1 [R-oxybutynin, (R)-4-diethylaminobut-2-ynyl 2-cyclohexyl-2-hydroxy-2-phenylethanoate]
